Patent US20150165000A1, “COMPOSITION FOR THERMOSTABILIZATION OF HUMAN SERUM ALBUMIN AND METHOD OF PREPARING THERMALLY STABILIZED HUMAN SERUM ALBUMIN USING THE SAME” (Ewha University - Industry Collaboration Foundation, priority 2012, published 2015)

Columns and labels:
human serum albumin [1] = molecular target: T1, human serum albumin (Homo sapiens, UniProt P02768); test: Structural stability against thermal treatment: secondary structure composition from circular dichroism; format: physicochemical; conditions: albumin 1 mg/mL
T1 construct: the single supply source of human serum albumin is currently the blood of humans; purchased Sigma-Aldrich A3782
Description: The composition of the secondary structure of protein may be estimated using circular dichroism, and thus changes in structure of the thermally denatured protein may be measured.
Measurement of circular dichroism was performed three times under conditions of a data pitch of 0.2 nm, a band width of 1.0 nm, a response time of 4 sec, and a scanning speed of 50 nm/min using a quartz cuvette having a path length of 0.1 cm by use of Jasco J-715 spectropolarimeter. The composition of the secondary structure was assayed from the measured circular dichroism values using SELCON3 program contained in the Dicroprot program.

human serum albumin [2] = molecular target: T1, human serum albumin; test: Thermal denaturation of human serum albumin solution: check of precipitation during heating; format: physicochemical; conditions: for precipitation check / endurable time duration of the prolonged processing / time after which precipitation began to form: albumin 50 mg/mL
Description: Thus, the present inventors estimated oleic acid affecting stability depending on the temperature. […] Specifically, while the temperature was maintained at 65° C., 70° C. and 75° C., whether the precipitation was formed due to denaturation of protein was checked at intervals of 30 min, 5 min and 3 min, respectively.
Thermostabilizing effects were evaluated at 70° C. using other C18 fatty acids including stearic acid, linoleic acid, α-linolenic acid and γ-linolenic acid, as well as oleic acid, in the same manner as in Example 6.1. for testing of stability against denaturation due to thermal treatment using oleic acid.
Thermostabilizing effects at 65° C. were evaluated using C16 fatty acids including palmitic acid and palmitoleic acid, as well as oleic acid as the C18 fatty acid, in the same manner as in Examples 6.1. and 6.2. for testing of stability against degeneration due to thermal treatment using various C18 fatty acids including oleic acid. The samples were warmed to 65° C. and observed at an interval of 5 min.
Thermostabilizing effects at 65° C. were evaluated using EPA (eicosapentaenoic acid) and DHA (docosahexanoic acid) as C20 and C22 fatty acids, as well as oleic acid as the C18 fatty acid, in the same manner as in Examples 6.1. to 6.3. for testing of stability against denaturation due to thermal treatment using various C16 and C18 fatty acids.

| Substance | Turn (composition of the secondary structure) (human serum albumin [1]; heated at 60° C. for 10 hr) | Unordered (composition of the secondary structure) (human serum albumin [1]; heated at 60° C. for 10 hr) | poly(Pro)II (composition of the secondary structure) (human serum albumin [1]; heated at 60° C. for 10 hr) | α-Helix (composition of the secondary structure) (human serum albumin [1]; heated at 60° C. for 10 hr) | β-sheet (composition of the secondary structure) (human serum albumin [1]; heated at 60° C. for 10 hr) | Turn (composition of the secondary structure) (human serum albumin [1]; heated at 70° C. for 10 hr) | Unordered (composition of the secondary structure) (human serum albumin [1]; heated at 70° C. for 10 hr) | poly(Pro)II (composition of the secondary structure) (human serum albumin [1]; heated at 70° C. for 10 hr) | α-Helix (composition of the secondary structure) (human serum albumin [1]; heated at 70° C. for 10 hr) | β-sheet (composition of the secondary structure) (human serum albumin [1]; heated at 70° C. for 10 hr) | Turn (composition of the secondary structure) (human serum albumin [1]; heated at 80° C. for 10 hr) | Unordered (composition of the secondary structure) (human serum albumin [1]; heated at 80° C. for 10 hr) | poly(Pro)II (composition of the secondary structure) (human serum albumin [1]; heated at 80° C. for 10 hr) | α-Helix (composition of the secondary structure) (human serum albumin [1]; heated at 80° C. for 10 hr) | β-sheet (composition of the secondary structure) (human serum albumin [1]; heated at 80° C. for 10 hr) | also measured |
| --- | --- | --- | --- | --- | --- | --- | --- | --- | --- | --- | --- | --- | --- | --- | --- | --- |
| A1653 Albumin: A1653 albumin (Sigma), human serum albumin sample | 0.105 | 0.311 | 0.042 | 0.481 | 0.072 | 0.144 | 0.369 | 0.055 | 0.330 | 0.124 | 0.149 | 0.390 | 0.054 | 0.270 | 0.127 |  |
| Albumin (Control): fatty acid-free human serum albumin (A3782, Sigma-Aldrich) solution not processed with fatty acid | 0.133 | 0.379 | 0.052 | 0.308 | 0.130 | 0.141 | 0.378 | 0.053 | 0.309 | 0.107 | 0.178 | 0.432 | 0.043 | 0.217 | 0.143 | precipitation check (human serum albumin [2]; 65° C., 5 min, Example 6.3): ◯; precipitation check (human serum albumin [2]; 65° C., 5 min, Example 6.4): ◯; precipitation check (human serum albumin [2]; 65° C., 10 min, Example 6.3): ◯; precipitation check (human serum albumin [2]; 65° C., 10 min, Example 6.4): ◯; endurable time duration of the prolonged processing (human serum albumin [2]; 65° C.): 60 min; time after which precipitation began to form (human serum albumin [2]; 65° C., Example 6.1): 30 min; endurable time duration, log unit (log65° C.) (human serum albumin [2]; 65° C., log of minutes): 1.78; precipitation check (human serum albumin [2]; 70° C., 3 min, Example 6.2): ◯; precipitation check (human serum albumin [2]; 70° C., 5 min, Example 6.1): ◯; time after which precipitation began to form (human serum albumin [2]; 70° C., Example 6.1): 10 min; endurable time duration, log unit (log70° C.) (human serum albumin [2]; 70° C., log of minutes): 1.18; precipitation check (human serum albumin [2]; 75° C., 3 min, Example 6.1): ◯; endurable time duration of the prolonged processing (human serum albumin [2]; 75° C.): 9 min; endurable time duration, log unit (log75° C.) (human serum albumin [2]; 75° C., log of minutes): 0.95 |
